# Experimental data: article PMC8032343, “Discovery of the natural product 3',4',7,8-tetrahydroxyflavone as a novel and potent selective BRD4 bromodomain 2 inhibitor” (Journal of Enzyme Inhibition and Medicinal Chemistry, 2021)
# Target: Bromodomain-containing protein 4 (BRD4), BD2 (Homo sapiens, UniProt O60885)
# Test: X-ray co-crystal structure ([…] Å); AlphaScreen displacement of histone H4 peptide
# Type: binding
structure (smiles),measurement,value
"O=c1cc(-c2ccc(O)c(O)c2)oc2c(O)c(O)ccc12 [compound 3478, 3′,4′,7,8-tetrahydroxyflavone]",pIC50,6.69

# pIC50: −log10 of the molar value.
